{
  "source": "PubChem BioAssay AID651580",
  "about": "(Sanford-Burnham Center for Chemical Genomics, 2012)",
  "note": "The entries are a selection whose mix differs from that of the whole data set. Activity calls are given as the source filed them.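 Rule for the calls: active = mean inhibition across four replicates of at least 40 percent at the single tested concentration; inactive = the rest.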",
  "data": [
    {"assay": "HIF-2a driven luciferase blockers, single dose – luminescence, 786-0 RCC cells, confirmation (AID 651580)", "settings": "HIF-2a luciferase reporter luminescence, overnight, at 18.8 µM, active compounds read high", "values": [
      {"smiles": "CN(C)C(=O)c1cc([N+](=O)[O-])cc2c1-c1c(cc([N+](=O)[O-])cc1[N+](=O)[O-])C2=O", "inhibition": "inactive: -4.27%"}
    ]}
  ]
}
